## Apparent affinities of Ab-14 variants for a coronavirus HR2 peptide

Reference: Li et al. 2023, doi:10.1038/s41467-023-39022-2. File: FLAb, binding data.

Binding partner: SARS-CoV-2 spike HR2 peptide, sequence PDVDLGDISGINAS.

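Designed CDR sequences, proposed from the first random library and measured here. Several design methods are mixed in this list. AlphaSeq pools MATa yeast showing the antibodies with MATalpha yeast showing the peptide. Mating (16 h, 30 °C) was followed by selection of diploids and sequencing of their barcodes. Each replicate has its own calibration line, from reference interactions of the BCL2 family. Each pool was mated in six replicate cultures.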

Ab-14 is the parent antibody, in scFv form: VH, then a 15-residue (Gly4Ser)3 linker, then VL. The heavy chain is unchanged in all variants.
VH: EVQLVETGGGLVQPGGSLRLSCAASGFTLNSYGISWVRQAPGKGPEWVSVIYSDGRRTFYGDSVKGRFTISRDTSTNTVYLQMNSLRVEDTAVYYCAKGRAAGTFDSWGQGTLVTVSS
VL: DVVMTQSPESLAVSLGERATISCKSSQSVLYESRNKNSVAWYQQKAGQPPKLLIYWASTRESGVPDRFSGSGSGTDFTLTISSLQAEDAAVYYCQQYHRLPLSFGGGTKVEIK

Variants are written as CDR1, CDR2 and CDR3 of the light chain (limits as in the source). Parent: KSSQSVLYESRNKNSVA, WASTRES, QQYHRLPLS. This list holds designs with at most six substitutions. Scale: log10 of Kd in nM, estimated from mating counts; low values are strong binders. A mean of the replicates is given; it leaves out those without a signal. A pair that was not seen in that replicate is written "nd"; this usually means weak binding, but a binder can also be missed.

Variant KFQQSQLYESRNKNSVA | NASCRCS | QQYHRLPLS showed 0.53, 0.38, 0.44, 0.20, 0.35, 0.94 (mean 0.47).
Variant KSSHSDLYEGRNKNSVA | WASTREL | QQYHRLPLS showed 2.19, 1.50, 1.26, 1.11, 2.02, 2.41 (mean 1.75).
Variant KSSISYLPEYRNKDSVA | EASTRES | QQYHRLPLS showed 0.52, nd, 1.00, 0.87, 0.98, 1.63 (mean 1.00).
Variant KVSQSVLYESRNKNSVA | EASTREV | QQYHRLPLS showed -0.23, -0.47, -0.43, -0.41, -0.57, -0.30 (mean -0.40).
Variant KSSQSVLQESRNKNSVA | GASTRCS | QQYVRLPLS showed 0.38, 0.44, 0.25, 0.29, 0.28, 0.25 (mean 0.31).
Variant KLSQSTLYEQRNCNSVA | NASQRES | QQYHRLPLS showed -0.23, 0.16, -0.28, -0.05, -0.28, 0.07 (mean -0.10).
Variant KSSQIVLYESRNKNSVA | WAYTRES | QQYHRLPLS showed nd, nd, nd, nd, nd, nd.
Variant KQSQSVLFQSRNKNSVA | DASTRES | QQYHRLPLS showed -0.27, -0.20, -0.61, -0.60, -0.39, -0.36 (mean -0.41).
Variant KSSQSVLYESRNKNSVA | YASTRES | QQMHRLPLS showed 2.30, 3.14, 1.97, 2.25, 4.11, 1.80 (mean 2.59).
Variant KLSQSQLYESRNKNSVA | NASQRLS | QQYHRLPLS showed 0.02, 0.08, 0.21, -0.14, -0.16, 0.05 (mean 0.01).
Variant KSSISSLTESRTKNSVA | WASTRES | QQYHRLPLS showed nd, nd, nd, 1.24, nd, nd.
Variant KSSQSVLYEHRNKNSVA | HASTRES | QQYHRLPLS showed 1.94, 1.09, 2.17, 1.05, 1.16, 1.65 (mean 1.51).
Variant KSSQSWLYESRNKNSVA | DASVRES | QQPHRLPLS showed nd, nd, nd, nd, nd, nd.
Variant KLSQSVTYESRNKNSVA | WATTRES | QQYHRLPLS showed 0.97, 1.11, 0.46, 0.24, 0.66, 0.53 (mean 0.66).
Variant KSSISYLHESRNKNSVA | EASTRES | QQYHRLPLS showed -0.04, -0.07, -0.17, -0.23, -0.04, -0.02 (mean -0.10).
Variant KFQQSWLYESRNKNSVA | NASCRMS | QQYHRLPLS showed 0.07, 0.13, -0.09, -0.16, 0.02, 0.20 (mean 0.03).
Variant SFSQSVLYESRNKNSVA | HASTRES | QQYHRLPLS showed 0.25, 0.04, -0.16, -0.07, -0.12, 0.08 (mean 0.00).
Variant KSPQSVLYESRNKNSVA | WASTRES | QQYHKLPLS showed 0.74, 0.34, 0.39, 0.42, 0.49, 0.48 (mean 0.48).
Variant KSQQSVLYESRNHNSVA | TASTRCS | QQYHRLMLS showed nd, 1.79, nd, nd, nd, nd.
Variant KSSQSVLYESRNKNSVA | WASTRES | QQYHRLPTS showed nd, nd, nd, nd, nd, nd.
Variant KSSQSVLYEGQNVNSVA | EASKRES | QQYHRLPLS showed nd, nd, nd, nd, 0.47, nd.
Variant KSSQSVLYESLNKNSVA | AASTRES | QQYHRLPLS showed 0.53, 0.82, 0.50, 0.87, 0.42, 0.87 (mean 0.67).
Variant KVQQSVWYESRNKNSVA | NASTRES | QQYHRLPLS showed 0.09, 0.18, 0.27, 0.24, -0.12, 0.23 (mean 0.15).
Variant KLSESVLYDSRNKNSVA | WASTRES | AQYHELPLS showed 0.93, 1.14, 1.14, 0.89, 1.43, 1.26 (mean 1.13).
Variant FSLQSVLYESRNFNSVA | NASTRED | QQYHRLPLS showed 0.89, 0.73, 0.64, 0.58, 0.46, 0.63 (mean 0.65).
Variant KLSQSFLYESRWKNSVA | EASQRES | QQYHRLPLS showed 0.26, 0.12, 0.46, 0.21, -0.04, 0.38 (mean 0.23).
Variant KLSQSDLYESRNKNSVA | GASTRED | QQYHRLPLS showed 1.07, 1.50, 1.07, 0.78, 0.81, 1.22 (mean 1.08).
Variant KVDQSDLYESRNKNSVA | EASTRES | QQYHRLPLS showed 0.23, 0.31, 0.31, 0.25, 0.05, 0.28 (mean 0.24).
Variant KLQQGVLYESRNKNSVA | GASTRES | QQYHRLPLS showed 0.10, -0.20, -0.14, -0.10, -0.30, 0.00 (mean -0.11).
Variant KLEQSVLYEQRNKNSVA | NASTRMS | QQYHRLPLS showed -0.15, -0.26, -0.57, -0.61, -0.38, -0.31 (mean -0.38).
Variant KLSQSHLYESRMKNNVA | NASTRES | QQYHRLPLS showed 0.51, 0.36, 0.41, 0.14, 0.40, 0.39 (mean 0.37).
Variant KISQSVGYESRNKNSVA | EASTRES | QQYHRLPLS showed 0.08, -0.06, -0.14, -0.31, -0.26, -0.03 (mean -0.12).
Variant KDSQSVLYSSRNKNSVA | AASTRES | QQYHRLPLS showed 0.89, 0.62, 0.28, 0.42, 1.08, 0.55 (mean 0.64).
Variant KFSQSWLYESMNKNSVA | DASTRES | QQYHRLPLS showed 0.20, -0.07, 0.36, -0.36, 0.00, 0.19 (mean 0.05).
Variant KSSISKLYESRNKNSVA | EASTREQ | QQYHRLPLS showed 0.23, 0.21, 0.31, 0.30, 0.14, -0.03 (mean 0.19).
Variant KISQSVLTESRNKNSVA | AASTRES | QQYHWLPLS showed 1.06, 1.05, 0.89, 1.04, 0.84, 0.87 (mean 0.96).
Variant KLSQSWLYESRNKNSVA | NASTRMD | QQYHRLPLS showed 0.23, 0.00, -0.07, -0.23, -0.03, -0.10 (mean -0.03).
Variant KSSQSVLQESENKNSVA | WASTRES | QQYHRLPLS showed 1.49, 1.05, 1.24, 0.66, 0.48, 0.86 (mean 0.96).
Variant KCSQSVLYESRNKNSVA | DASTRES | QQYHRLPLD showed 0.29, 0.26, 1.25, 0.78, 0.45, 0.71 (mean 0.62).
Variant KLQQSVLYESRNKNSVA | EASTREV | QQYHRLPLS showed -0.23, -0.40, -0.48, -0.36, -0.45, -0.24 (mean -0.36).
Variant KSSISGLYESRNKNSVA | AASTREL | QQYHRLPLS showed 0.50, 0.21, 0.32, 0.45, 0.26, 0.58 (mean 0.39).
Variant KSSDSVLPETRNKNSVA | EASTRCS | QQYWRLPLS showed 0.74, 0.43, 0.71, 0.53, 0.64, 0.83 (mean 0.65).
Variant KSSQSVLYESRNKNSVA | WASTRES | QQYHRLPKS showed nd, nd, nd, nd, nd, nd.
Variant KFSQSVLYESRNKNSVA | NASTREV | QQYHRLPLS showed -0.07, -0.04, -0.24, -0.31, -0.25, 0.05 (mean -0.14).
Variant KLQQSVLYESRNKNSVA | NASQRCS | QQYHRLPLS showed 0.18, 0.06, -0.12, -0.12, -0.18, 0.03 (mean -0.02).
Variant KMSQSWLYESRNKNNVA | DASQRES | QQYHRLPLS showed -0.53, -0.60, -0.60, -0.91, -0.67, -0.58 (mean -0.65).
Variant KLRQQTLYESRNKNSVA | MASTREE | QQYHRLPLS showed 0.43, -0.03, -0.01, 0.01, 0.00, 0.10 (mean 0.08).
Variant KSSQSFLYESRNKNSVA | GASTRES | QAYHRLPLS showed 2.01, 1.48, nd, 1.75, 1.35, 1.87 (mean 1.69).
Variant MSSQSVLYESRNKNSVA | QASTRES | QQYHRLPLS showed 0.93, 0.62, 0.78, 0.55, 1.63, 1.14 (mean 0.94).
Variant KSSQSVLYESRNKNNVA | WASTRES | QQYHDLPLS showed 1.75, 1.44, 1.52, nd, 2.22, nd (mean 1.73).

The last 3 entries again:

Variant KSSQSFLYESRNKNSVA | GASTRES | QAYHRLPLS showed 2.01, 1.48, nd, 1.75, 1.35, 1.87 (mean 1.69).
Variant MSSQSVLYESRNKNSVA | QASTRES | QQYHRLPLS showed 0.93, 0.62, 0.78, 0.55, 1.63, 1.14 (mean 0.94).
Variant KSSQSVLYESRNKNNVA | WASTRES | QQYHDLPLS showed 1.75, 1.44, 1.52, nd, 2.22, nd (mean 1.73).

Values of this round are not directly comparable with the first-round values of the same sequences. Three control strains display no target. For all light chain designs, 4% of the pairings with them gave a signal, with a median of 2.64 and one signal in twenty below 1.59, so weak values seen in few replicates may be background. The parent sequence was in this pool as ten entries: three were never detected, three once, and four in most replicates, with averages from 0.34 to 2.37. The authors averaged sequences with at least three values out of six and counted those with two or fewer as poor binders.